For test [1], the target named is T1, 1-deoxy-D-xylulose-5-phosphate synthase (Klebsiella pneumoniae) (UniProt B5Y0X1).
T1 sequence (whole entry): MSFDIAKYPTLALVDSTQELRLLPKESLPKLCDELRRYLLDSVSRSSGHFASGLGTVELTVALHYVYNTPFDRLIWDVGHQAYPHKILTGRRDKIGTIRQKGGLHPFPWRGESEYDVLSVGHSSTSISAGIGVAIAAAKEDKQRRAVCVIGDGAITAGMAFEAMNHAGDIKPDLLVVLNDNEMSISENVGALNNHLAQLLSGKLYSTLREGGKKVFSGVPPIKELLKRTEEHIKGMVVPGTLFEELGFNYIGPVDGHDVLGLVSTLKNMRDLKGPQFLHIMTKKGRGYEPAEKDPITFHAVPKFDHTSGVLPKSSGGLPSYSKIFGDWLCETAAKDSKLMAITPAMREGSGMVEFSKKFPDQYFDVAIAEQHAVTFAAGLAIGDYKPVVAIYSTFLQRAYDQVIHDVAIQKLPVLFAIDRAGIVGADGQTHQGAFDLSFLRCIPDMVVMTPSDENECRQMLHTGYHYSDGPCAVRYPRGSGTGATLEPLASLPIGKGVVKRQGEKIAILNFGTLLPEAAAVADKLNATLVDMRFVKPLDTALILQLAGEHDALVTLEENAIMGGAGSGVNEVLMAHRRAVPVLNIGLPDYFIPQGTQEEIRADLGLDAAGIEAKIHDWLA
The settings on record: dose 1.0 mM, time 10.0 min.

A further test relates to Aerococcus viridans. Conditions: dose 1.0 mM, time 30.0 min.
In test [2] the target is T2, 1-deoxy-D-xylulose-5-phosphate synthase (Pseudomonas aeruginosa (strain LESB58)) (UniProt B7V7R4).
T2 sequence (whole entry): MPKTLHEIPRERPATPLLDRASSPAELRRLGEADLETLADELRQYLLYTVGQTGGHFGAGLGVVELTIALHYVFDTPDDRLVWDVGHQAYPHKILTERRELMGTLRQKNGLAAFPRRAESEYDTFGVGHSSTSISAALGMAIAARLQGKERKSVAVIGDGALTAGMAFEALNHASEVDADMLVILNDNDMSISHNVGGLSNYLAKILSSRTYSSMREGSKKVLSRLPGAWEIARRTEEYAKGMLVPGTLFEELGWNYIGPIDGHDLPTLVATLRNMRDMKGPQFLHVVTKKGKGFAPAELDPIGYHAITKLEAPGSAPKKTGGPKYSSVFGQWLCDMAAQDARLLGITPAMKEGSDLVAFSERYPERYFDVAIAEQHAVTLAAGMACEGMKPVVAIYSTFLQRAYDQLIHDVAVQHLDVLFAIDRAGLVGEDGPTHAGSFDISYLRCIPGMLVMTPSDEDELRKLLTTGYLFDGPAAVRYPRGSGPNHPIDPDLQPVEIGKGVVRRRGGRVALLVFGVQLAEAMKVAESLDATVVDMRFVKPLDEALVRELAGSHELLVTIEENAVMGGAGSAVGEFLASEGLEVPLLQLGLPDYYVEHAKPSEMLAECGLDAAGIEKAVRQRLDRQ
Conditions: dose 1.0 mM, time 10.0 min.

Another test concerns Saccharomyces cerevisiae. The settings on record: dose 1.0 mM, time 60.0 min.

Activity calls are given as the source filed them. The calls are words filed in the database; no cut-off is given here.

On to `CC(C)(C(=O)O)C(=O)N(O)Cc1ccccc1Cl`, for which the inhibition in test [1] and in test [2] was below 16% throughout. Further, the inhibition result in the test with Aerococcus viridans and with Saccharomyces cerevisiae was “inactive” throughout.
For the compound `CC1(C)C(=O)ON(Cc2ccccc2Cl)C1=O` [KETOCLOMAZONE], the inhibition in test [1] and in test [2] was below 16% in each case. For the same compound, the inhibition entry in the test on Aerococcus viridans and in the test on Saccharomyces cerevisiae was “inactive” throughout.

The values above are taken from ChEMBL document CHEMBL5532701 (RSC Med Chem, 2024).
